The experiment concerns the target T1, [^35S]-labeled MCM3 synthesized in vitro (UniProt P25206 1-812, limits assumed, radio-labeled with ^35S-methionine).
T1 construct: also called [^35S]-MCM3; in vitro translated MCM3
T1 sequence (looked up): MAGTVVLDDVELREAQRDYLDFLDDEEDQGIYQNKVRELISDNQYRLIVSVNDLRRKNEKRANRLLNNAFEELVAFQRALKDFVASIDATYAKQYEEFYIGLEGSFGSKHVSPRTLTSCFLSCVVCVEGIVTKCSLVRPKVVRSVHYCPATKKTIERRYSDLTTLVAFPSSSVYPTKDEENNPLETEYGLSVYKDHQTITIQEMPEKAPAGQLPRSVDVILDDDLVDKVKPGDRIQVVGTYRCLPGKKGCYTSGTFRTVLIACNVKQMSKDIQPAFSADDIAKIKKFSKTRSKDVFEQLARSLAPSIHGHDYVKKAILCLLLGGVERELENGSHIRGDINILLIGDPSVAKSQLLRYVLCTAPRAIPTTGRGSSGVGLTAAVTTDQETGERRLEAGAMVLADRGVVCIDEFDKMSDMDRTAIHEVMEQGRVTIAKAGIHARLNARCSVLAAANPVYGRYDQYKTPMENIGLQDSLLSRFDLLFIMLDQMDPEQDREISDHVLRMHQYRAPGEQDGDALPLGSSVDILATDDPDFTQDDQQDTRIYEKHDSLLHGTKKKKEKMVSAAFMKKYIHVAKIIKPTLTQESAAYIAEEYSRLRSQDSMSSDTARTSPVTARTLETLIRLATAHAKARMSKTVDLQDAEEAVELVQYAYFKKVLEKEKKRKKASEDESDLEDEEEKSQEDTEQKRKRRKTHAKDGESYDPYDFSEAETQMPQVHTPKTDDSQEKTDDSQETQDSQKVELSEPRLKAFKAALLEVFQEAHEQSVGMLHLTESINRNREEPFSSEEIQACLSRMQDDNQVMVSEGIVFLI
Description: GST pull-down of in vitro translated [35S]-MCM3, autoradiography.

B1: GST alone (negative control) (other, UniProt P08515 1-218, looked up)
chain: MSPILGYWKIKGLVQPTRLLLEYLEEKYEEHLYERDEGDKWRNKKFELGLEFPNLPYYIDGDVKLTQSMAIIRYIADKHNMLGGCPKERAEISMLEGAVLDIRYGVSRIAYSKDFETLKVDFLSKLPEMLKMFEDRLCHKTYLNGDHVTHPDFMLYDALDVVLYMDPMCLDAFPKLVCFKKRIEAIPQIDKYLKSSKYIAWPLQGWQATFGGGDHPPK
notes: Negative control in the pull-down with in vitro translated MCM3
With B1, the binding result is listed as “no binding”.

Source of the values: US20080233109A1 (IMMUNOKICK INCORPORATION, published 2008).
